9 compounds from PubChem BioAssay (Tox21) can be followed below.

Chains of the proteins cited; added tags and fusions are not shown.
UniProt Q96RI1, whole entry: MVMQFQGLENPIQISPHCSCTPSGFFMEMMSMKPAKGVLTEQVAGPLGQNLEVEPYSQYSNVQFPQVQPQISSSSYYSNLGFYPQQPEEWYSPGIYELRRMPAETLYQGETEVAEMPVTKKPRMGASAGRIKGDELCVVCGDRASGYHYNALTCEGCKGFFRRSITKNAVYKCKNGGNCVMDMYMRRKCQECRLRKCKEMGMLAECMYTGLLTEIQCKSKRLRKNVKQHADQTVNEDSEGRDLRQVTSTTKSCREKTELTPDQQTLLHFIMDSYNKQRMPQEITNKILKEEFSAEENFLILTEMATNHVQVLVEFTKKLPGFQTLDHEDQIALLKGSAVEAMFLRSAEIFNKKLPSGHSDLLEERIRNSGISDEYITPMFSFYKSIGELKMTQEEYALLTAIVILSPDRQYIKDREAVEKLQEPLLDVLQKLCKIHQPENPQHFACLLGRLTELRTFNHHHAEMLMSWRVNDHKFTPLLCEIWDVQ

The nature of assay [1]: qHTS assay to identify small molecule antagonists of the peroxisome proliferator-activated receptor gamma (PPARg) signaling pathway - cell viability counter screen (AID 743194). Also: nearly all actives have a fitted effect of over 55% in size. As to conditions: PPARg-bla HEK293H viability, CellTiter-Glo luminescence, 17 h, co-treated with 50 nM rosiglitazone. An outline of the steps: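 PPARg-UAS-bla HEK293H cells were plated, rested 5 h at 37 C, then treated with compounds plus rosiglitazone (50 nM final) for 17 h at 37 C; viability was then read by CellTiter-Glo luminescence after 30 min at room temperature.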
Background: In qHTS, concentration-response curves come from the screen itself.

The nature of assay [2]: qHTS assay for small molecule agonists of the antioxidant response element (ARE) signaling pathway (AID 743202; active = well fitted activation curve with a large enough effect in the signal ratio in the repeat runs, not every such curve was filed as active; the % refers to the signal ratio; also: potency is read from the fitted curve at half-maximal effect). As to conditions: HepG2 ARE-bla reporter, beta-lactamase FRET, 16 h; series mostly up to 73.3 µM. An outline of the steps:
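Read-out: LiveBLAzer B/G FRET substrate fluorescence after 2 h at room temperature, following 16 h compound treatment at 37 C of HepG2 cells carrying an ARE-driven beta-lactamase reporter.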

Assay [3] is described as follows: qHTS assay for small molecule agonists of the antioxidant response element (ARE) signaling pathway - cell viability counter screen (AID 743203; calls by dose curve; also: nearly all actives have a fitted effect of over 55% in size). As to conditions: ARE-bla HepG2 viability, CellTiter-Glo luminescence, 16 h. Put shortly: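 Compounds in DMSO were pinned onto ARE-bla HepG2 cells plated 5 hrs earlier at 2,000 cells/well. Sixteen hours later at 37C/5% CO2, CellTiter-Glo was added and luminescence measured after 30 min at room temperature.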

Assay [4] in a line: qHTS assay for small molecule activators of the heat shock response signaling pathway - cell viability counter screen (AID 743209). Also: nearly all actives have a fitted effect of over 50% in size. As to conditions: HSE-bla HeLa viability, CellTiter-Glo luminescence, 5 h. Put shortly: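 Counter screen for cytotoxicity in HeLa HSE-bla reporter cells. Treatment was 5 h at 37 C; viability was detected by luminescent ATP assay (CellTiter-Glo) in the same wells as the beta-lactamase read.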

Assay [5] in a line: qHTS assay for small molecule activators of the heat shock response signaling pathway (AID 743210; active = well fitted activation curve with a large enough effect in the signal ratio in the repeat runs, with a control signal flat, not every such curve was filed as active; the % refers to the signal ratio). The following applies: HeLa HSE-bla reporter, beta-lactamase ratio, 5 h. An outline of the steps:
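HSE-bla HeLa cells (beta-lactamase reporter under heat shock response elements) were exposed to compounds for 5 h at 37 C, then loaded with LiveBLAzer B/G FRET substrate for 2.5 h at room temperature before fluorescence reading.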

Assay [6] is described as follows: qHTS assay to identify small molecule agonists of the peroxisome proliferator-activated receptor delta (PPARd) signaling pathway - cell viability counter screen (AID 743211). Also: nearly all actives have a fitted effect of over 55% in size. As to conditions: PPARd-bla HEK293H viability, CellTiter-Glo luminescence, 17 h. Put shortly:
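Viability was measured as CellTiter-Glo luminescence (30 min, room temperature) in the same wells as the beta-lactamase readout. GeneBLAzer PPARd UAS-bla HEK293H cells received compound after 5 h plating and were incubated 17 h at 37 C.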

Assay [7] is described as follows: qHTS assay to identify small molecule antagonists of the peroxisome proliferator-activated receptor delta (PPARd) signaling pathway - cell viability counter screen (AID 743213). Also: nearly all actives have a fitted effect of over 50% in size. As to conditions: PPARd-bla HEK293H viability, CellTiter-Glo luminescence, 17 h; at 62 µM (top of the series). An outline of the steps: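 PPARd-bla HEK293H cells were treated with compounds plus agonist L165041 (300 nM final) for 17 h at 37 C. Viability was then read in the same wells by CellTiter-Glo luminescence after 30 min at room temperature.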

Assay [8] in a line: qHTS assay to identify small molecule agonists of the farnesoid-X-receptor (FXR) signaling pathway - cell viability counter screen (AID 743218). Also: nearly all actives have a fitted effect of over 45% in size. The following applies: FXR-bla HEK293T viability, CellTiter-Glo luminescence, 16 h. Put shortly: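 After 16 h at 37 C with test compounds, FXR-bla HEK 293T cells were given LiveBLAzer B/G substrate for 2 h at RT and then CellTiter-Glo; luminescence was taken after 30 min.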

Assay [9] deals with Bile acid receptor (Homo sapiens) (UniProt Q96RI1). Kind of assay: qHTS assay to identify small molecule antagonists of the farnesoid-X-receptor (FXR) signaling pathway (AID 743217; active = well fitted inhibition curve with a large enough effect in the signal ratio in the repeat runs, not every such curve was filed as active; the % refers to the signal ratio). The following applies: HEK293T FXR-UAS-bla, beta-lactamase ratio, CDCA-stimulated, 16 h. An outline of the steps:
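In this cell-based antagonist screen, inhibition of CDCA-driven (50 uM final) UAS-beta-lactamase expression in HEK 293T cells was measured by FRET fluorescence following 16 h compound exposure at 37 °C.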

Assay [10] has the same target. Kind of assay: qHTS assay to identify small molecule agonists of the farnesoid-X-receptor (FXR) signaling pathway (AID 743220; active = well fitted activation curve with a large enough effect in the signal ratio in the repeat runs, not every such curve was filed as active; the % refers to the signal ratio). As to conditions: HEK293T FXR-UAS-bla, beta-lactamase FRET ratio, 16 h.

“And” between values parts separate entries of the source, which are not always exact repeats. Identical values can stand only once. The entries are a selection whose mix differs from that of the whole data set. Records with an inconclusive call do not appear. The source made the active and inactive calls. Unless noted, calls follow the shape of the dose curve; as a rule, active = well fitted curve in the direction sought with a large enough effect in the repeat runs; inconclusive = weak or mixed curves; inactive = no such curve, though single readings can be large; an effect the other way counts as inactive or inconclusive.
% is scaled to controls: 0 for no effect and ±100 for the full control effect.

In the case of `Cc1ccc([N+](=O)[O-])cc1[N+](=O)[O-]`, the activity change, negative = cytotoxicity in assay [1] (at 62.6 µM (top of the series)) was inactive: 31.3% and inactive: 4.93%; in assay [4] (at 62.6 µM (top of the series)), inactive: -0.721% and inactive: -2.35%; in [6] (at 62.6 µM (top of the series)) it was inactive: -0.0781% and inactive: 7.07%. For the same compound, the Potency entry in assay [2] was “inactive”. The viability change, negative = cytotoxic was inactive: 7.75% and inactive: 5.52% in assay [3] (at 73.3 µM (top of the series)); inactive: 0.945% and inactive: -19.3% in assay [7]; inactive: -11.9% and inactive: 11% in [8] (at 62.6 µM (top of the series)). The activation in assay [5] (at 62.6 µM (top of the series)) was inactive: -0.743% and inactive: -0.374%.
For the compound `Cc1ccc([N+](=O)[O-])c([N+](=O)[O-])c1`, the activity change, negative = cytotoxicity in [1] (at 62.6 µM (top of the series)) is inactive: -6.96%; in assay [4] (at 62.6 µM (top of the series)), inactive: 7.06%; in assay [4] (at 81.1 µM (top of the series)), inactive: -0.786%; in [6] (at 62.6 µM (top of the series)) it was inactive: 7.07%; in assay [6] (at 81.1 µM (top of the series)), inactive: 2.51%. For the same compound, the figures for the viability change, negative = cytotoxic in assay [3] (at 94.8 µM (top of the series)), in [8] (at 62.6 µM (top of the series)) and in assay [8] (at 81.1 µM (top of the series)) were inactive: -6.98%, inactive: 0.656% and inactive: 4.81%, respectively.
Regarding `O=[N+]([O-])OCC(CO[N+](=O)[O-])(CO[N+](=O)[O-])CO[N+](=O)[O-]`, the values for the activity change, negative = cytotoxicity in [1] (at 62.6 µM (top of the series)), in assay [4] (at 62.6 µM (top of the series)) and in [6] (at 62.6 µM (top of the series)) were inactive: 5.64%, inactive: 5.06% and inactive: 5.33%, respectively. Further, the Potency result in [2] is “inactive”. Further, the viability change, negative = cytotoxic in assay [3] (at 73.3 µM (top of the series)) was inactive: 10.5%; in [7] it was inactive: -12%; in assay [8] (at 62.6 µM (top of the series)), inactive: -0.0782%. For the same compound, the activation was inactive: -0.315% in [5] (at 62.6 µM (top of the series)) and inactive: 0.195% in [10] (at 62.6 µM (top of the series)). In assay [9] (at 62.6 µM (top of the series)), the activity change, negative = inhibition was inactive: 0.223%.
For the compound `CC(C)OP(C)(=O)OC(C)C`, the activity change, negative = cytotoxicity was inactive: -9.09% and inactive: 27.7% in assay [1] (at 62.6 µM (top of the series)); inactive: -0.332% and inactive: 8.12% in assay [4] (at 62.6 µM (top of the series)). Also, the Potency entry in assay [2] was “inactive”. In addition, the viability change, negative = cytotoxic in assay [3] (at 73.3 µM (top of the series)) is inactive: -9.01% and inactive: 3.41%; in assay [7] it was inactive: -11.1% and inactive: 9.24%; in assay [8] (at 62.6 µM (top of the series)), inactive: 5.28% and inactive: -6.71%. For the same compound, in [5] (at 62.6 µM (top of the series)), the activation was inactive: -0.252% and inactive: 0.56%.
Regarding `OCCSCCO`, the activity change, negative = cytotoxicity in assay [1] (at 62.6 µM (top of the series)) is inactive: 5.56%; in assay [1] (at 81.1 µM (top of the series)), inactive: -11.6%; in assay [4] (at 62.6 µM (top of the series)), inactive: 3.73%; in assay [4] (at 81.1 µM (top of the series)), inactive: 13.9%; in assay [6] (at 62.6 µM (top of the series)), inactive: 3.64%; in assay [6] (at 81.1 µM (top of the series)), inactive: -2.61%. In addition, in [2], the Potency result is “inactive”. The viability change, negative = cytotoxic in assay [3] (at 73.3 µM (top of the series)) is inactive: 10.1%; in assay [3] (at 94.8 µM (top of the series)), inactive: 1.28%; in assay [7], inactive: 1.34%; in [8] (at 62.6 µM (top of the series)) it was inactive: -24.4%; in assay [8] (at 81.1 µM (top of the series)), inactive: 11.7%. For the same compound, the activation is inactive: -1.28% in assay [5] (at 62.6 µM (top of the series)), inactive: -0.487% in [5] (at 81.1 µM (top of the series)), inactive: -0.116% in [10] (at 62.6 µM (top of the series)) and inactive: -2.58% in [10] (at 81.1 µM (top of the series)). The activity change, negative = inhibition in assay [9] (at 62.6 µM (top of the series)) is inactive: -0.0431%; in assay [9] (at 81.1 µM (top of the series)), inactive: -0.284%.
As to `CC(C)N(CCO)C(C)C`, the figures for the activity change, negative = cytotoxicity in [1] (at 62.6 µM (top of the series)), in assay [4] (at 62.6 µM (top of the series)) and in [6] (at 62.6 µM (top of the series)) were inactive: 3.35%, inactive: -13.1% and inactive: 0.616%, respectively. In addition, the Potency result in assay [2] was “inactive”. Also, the viability change, negative = cytotoxic in assay [3] (at 73.3 µM (top of the series)) is inactive: 4.85%; in assay [7], inactive: 0.376%; in assay [8] (at 62.6 µM (top of the series)) it was inactive: -10%. The activation is inactive: -1.3% in assay [5] (at 62.6 µM (top of the series)) and inactive: 3.46% in assay [10] (at 62.6 µM (top of the series)). Also, in assay [9] (at 62.6 µM (top of the series)), the activity change, negative = inhibition is inactive: 0.867%.
In the case of `CCN(CC)CCCl`, the activity change, negative = cytotoxicity in assay [1] (at 81.1 µM (top of the series)) was inactive: -2.85%; in assay [4] (at 81.1 µM (top of the series)) it was inactive: 6.14%. In addition, the Potency in assay [2] was active: 24.7 µM. In assay [3] (at 94.8 µM (top of the series)), the viability change, negative = cytotoxic is inactive: -2.79%. Also, in assay [5] (at 81.1 µM (top of the series)), the activation is inactive: 0.645%.
In the case of `CCOP(=O)(CC)Oc1ccc([N+](=O)[O-])cc1` (stereo not given), the activity change, negative = cytotoxicity in [1] (at 62.6 µM (top of the series)) is inactive: -15.5%; in [4] (at 62.6 µM (top of the series)), inactive: -26.3%; in [6] (at 62.6 µM (top of the series)) it was inactive: -3.52%. The viability change, negative = cytotoxic in [3] (at 73.3 µM (top of the series)) was inactive: -1.72%. In addition, the activation in assay [5] (at 62.6 µM (top of the series)) was inactive: 6.73%. The activity change, negative = inhibition in [9] (at 62.6 µM (top of the series)) is inactive: -15.4%.
Regarding `O=[N+]([O-])[O-].[NH4+]`, the activity change, negative = cytotoxicity is inactive: 21.5% and inactive: -13.3% in assay [1] (at 62.6 µM (top of the series)); inactive: -2.85% and inactive: -2.38% in assay [4] (at 62.6 µM (top of the series)); inactive: 11.3% and inactive: 6.58% in assay [6] (at 62.6 µM (top of the series)). For the same compound, the Potency result in assay [2] was “inactive”. Further, the viability change, negative = cytotoxic in assay [3] (at 73.3 µM (top of the series)) was inactive: -0.272% and inactive: 13.1%; in [7], inactive: 1.41% and inactive: 6.71%; in assay [8] (at 62.6 µM (top of the series)), inactive: 14.8%. Further, the activation in [5] (at 62.6 µM (top of the series)) was inactive: -0.213% and inactive: 6.35%.
